# Experimental melting point values from OPERA 2.9

From the experimental data distributed with OPERA 2.9.

The melting point is given in degrees Celsius.
"via" names the databases from which the curators took the value.

COc1ccc2[nH]c(C(=O)O)cc2c1OC is reported with melting point 222 °C (via OCHEM). The entry for NN1CCN(C(c2ccccc2)c2ccccc2)CC1 lists melting point 109 °C (via OCHEM). For Cc1cc(=O)n2nc(N)sc2n1 the data give melting point 336 °C (via OCHEM). The entry for COc1ccc(S(=O)(=O)Cl)cc1C(=O)O lists melting point 143 °C (via OCHEM).

NC(=S)c1cccc([N+](=O)[O-])c1 has melting point 133 °C (via OCHEM). The entry for Cc1ccc(C(N)=O)cc1N=Nc1c(O)c(C(=O)Nc2ccccc2)cc2ccccc12 lists melting point 250.6 °C (via eChemPortal). For COC1=CC2=CC[C@H]3[C@@H]4[C@@H]5C[C@@H]5[C@](O)(CCC5OCCO5)[C@@]4(C)CC[C@@H]3[C@@]2(C)CC1 the data give melting point 174 °C (via eChemPortal). The entry for O=C(O)CNC(=O)Nc1ccccc1 lists melting point 197 °C (via OCHEM).

The entry for Cc1nc(C)c(-c2csc(N)n2)s1 lists melting point 126 °C (via OCHEM). Cc1ccc(-n2nc(C(C)(C)C)cc2N)cc1 is reported with melting point 117 °C (via OCHEM). Listed for S=c1[nH]nc(-c2ccco2)o1: melting point 174 °C (via OCHEM). O=C(O)c1ccc2c(=O)n3c(nc2c1)CCC3 is reported with melting point 355 °C (via OCHEM).

The entry for CC1=CC(=C(c2ccc(N)c(C)c2)c2ccc(N)c(C)c2)C=CC1=N.Cl lists melting point 226.5 °C (via eChemPortal). Cc1[nH]ncc1[N+](=O)[O-] is reported with melting point 132.5 °C (via OCHEM). The entry for Cc1ccc(C(=O)CCC(=O)O)cc1C lists melting point 128 °C (via OCHEM). Listed for O=Cc1cn(-c2ccccc2)nc1-c1ccc(Cl)cc1: melting point 126 °C (via OCHEM).

For C=C(C)CNC(=S)NN the data give melting point 87 °C (via OCHEM). For NS(=O)(=O)c1ccc(=S)[nH]c1 the data give melting point 243 °C (via OCHEM). Listed for Cc1noc(C)c1CCC(=O)O: melting point 110 °C (via OCHEM). Listed for Cc1nc2sccn2c1C=O: melting point 95 °C (via OCHEM).

For O=C1C(=O)N(Cc2ccccc2Cl)c2ccccc21 the data give melting point 131 °C (via OCHEM). For Cc1ccccc1-n1[nH]nnc1=S the data give melting point 66 °C (via OCHEM). The entry for Cc1ccc(N2C(=O)Cc3ccccc3C2=O)cc1 lists melting point 174 °C (via OCHEM). Listed for Cc1ccc(-c2nnc(Cl)c3ccccc23)cc1C: melting point 242 °C (via OCHEM).

For O=C(O)CCCN1C(=O)CCC1=O the data give melting point 103 °C (via OCHEM). Listed for CCOC(=O)[C@@H](N)CSC(O)=NC: melting point 209.5 °C (via OCHEM). O=C(O)c1sccc1S(=O)(=O)N1CCCCC1 has melting point 112 °C (via OCHEM). For Cc1ccc(C)c(-c2nc(N)sc2C)c1 the data give melting point 93 °C (via OCHEM).

The entry for COc1cc2nc(-c3ccccc3)nc(Cl)c2cc1OC lists melting point 133 °C (via OCHEM). The entry for CS(=O)(=O)c1cccc(N)c1 lists melting point 50 °C (via OCHEM). N#Cc1ccc(C(=O)N2CCOCC2)cc1 is reported with melting point 145 °C (via OCHEM). N#Cc1ccc(-c2csc(N)n2)cc1 is reported with melting point 268 °C (via OCHEM).

For Cc1nn(-c2ccccc2)c(C)c1CN the data give melting point 78 °C (via OCHEM). Cc1cc(C)c(N)c(I)c1 has melting point 64.5 °C (via OCHEM). For CC(C)(C)NC(=O)c1ccccc1C(=O)O the data give melting point 147 °C (via OCHEM). Listed for CCCC(=O)OCC=Cc1ccccc1: melting point -3.16 °C (via eChemPortal).

O=C1C=CC(=O)N1c1ccc(F)cc1 is reported with melting point 161 °C (via OCHEM). Listed for O=C(O)c1ccc2c(c1)C(=O)N(C1CCCCC1)C2=O: melting point 194 °C (via OCHEM). Cc1ccc2cc(C=O)c(Cl)nc2c1 is reported with melting point 149 °C (via OCHEM). Cc1ccccc1S(=O)(=O)O has melting point 67.5 °C (via OCHEM).

For CC1(c2ccco2)NC(=O)NC1=O (centres undefined) the data give melting point 180 °C (via OCHEM). COc1ccc(C(=O)NCC(=O)O)cc1OC is reported with melting point 199 °C (via OCHEM).

Excerpt, the final 7 entries:

{"smiles": "CCCC(=O)OCC=Cc1ccccc1", "melting point (°C)": "-3.16", "via": "eChemPortal"}
{"smiles": "O=C1C=CC(=O)N1c1ccc(F)cc1", "melting point (°C)": "161", "via": "OCHEM"}
{"smiles": "O=C(O)c1ccc2c(c1)C(=O)N(C1CCCCC1)C2=O", "melting point (°C)": "194", "via": "OCHEM"}
{"smiles": "Cc1ccc2cc(C=O)c(Cl)nc2c1", "melting point (°C)": "149", "via": "OCHEM"}
{"smiles": "Cc1ccccc1S(=O)(=O)O", "melting point (°C)": "67.5", "via": "OCHEM"}
{"smiles": "CC1(c2ccco2)NC(=O)NC1=O", "stereo": "centres undefined", "melting point (°C)": "180", "via": "OCHEM"}
{"smiles": "COc1ccc(C(=O)NCC(=O)O)cc1OC", "melting point (°C)": "199", "via": "OCHEM"}

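These are experimental values that the OPERA curators gathered from public databases to train and test their QSAR models. The files give a single number for a compound and property, which may rest on several reports. Method and conditions are not stated for these values. A value may pool stereoisomers or salt forms, and the file does not say which form was measured. Some entries may be limits or estimates that an upstream database listed as plain numbers.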